# Measurements as given in patent US9670214B2, “Small molecule myristate inhibitors of Bcr-abl and methods of use” (DANA-FARBER CANCER INSTITUTE, INC., priority 2007, dated 2017).
# System: Ba/F3 cells (IL-3 dependent murine pro-B cell line)
# Experiment: Proliferation assay (MTT), parental Ba/F3 cells
# Conditions: read-out: BaF3, 48 h, drug concentrations 0.005-10 μM
row,Compound,IC50 [µM]
1,Fc1cc(Cn2ncc3c(Nc4ccc(OC(F)(F)F)cc4)ncnc32)ccc1C(F)(F)F,6.7
2,Oc1cccc(Cn2ncc3c(Nc4ccc(OC(F)(F)F)cc4)ncnc32)c1,6.9
3,FC(F)(F)Oc1ccc(Nc2ncnc3c2cnn3Cc2cccnc2)cc1,2.2
